How the values were obtained:
[1] = molecular target: HLA-B*3501 (human); experiment: competitive inhibition of 125I-B35con2 binding to purified HLA
[2] = molecular target: HLA-A*0101 (human); experiment: competitive inhibition of 125I-human J chain peptide binding to purified HLA
[3] = molecular target: HLA-B*4501 (human); experiment: competition vs labelled reference peptide on HLA class I
[4] = molecular target: HLA-B*4402 (human); experiment: competitive inhibition of radiolabeled probe peptide, purified HLA
[5] = molecular target: HLA-B*4002 (human); experiment: as above
[6] = molecular target: HLA-B*4403 (human); experiment: as above
[7] = molecular target: HLA-B*4403 (human); experiment: competition with labeled probe peptide, purified HLA class I
[8] = molecular target: HLA-B*4002 (human); experiment: as above
[9] = molecular target: HLA-B*4402 (human); experiment: as above
[10] = molecular target: HLA-B*4501 (human); experiment: as above
[11] = molecular target: HLA-B*1801 (human); experiment: as above
[12] = molecular target: HLA-A*1101 (human); experiment: competition vs 125I probe, purified HLA
[13] = molecular target: HLA-B*3501 (human); experiment: inhibition of 125I-B35con2 probe, purified HLA
[14] = molecular target: HLA-A*0101 (human); experiment: inhibition of 125I-J chain peptide probe, purified HLA

For LPTTMNYPI [MAGE3.71.I9 …], the IC50 [1] was 343 nM.

VTDLGLSY [MAGE2.179.D3 VTDLGLSY] gave an IC50 [2] of 2.7 nM.

GEGLACHQLCA [GEGLACHQLCA (Her2/neu position 506, 11-mer)] showed an IC50 [3] of 196 nM.

PEVGSDCTTIHY [PEVGSDCTTIHY (p53, position 223, 12-mer)] gave an IC50 [4] of 4090 nM, an IC50 [5] of 7990 nM and an IC50 [6] of 1940 nM.

Work on EEGLEARGEALGL [EEGLEARGEALGL (MAGE2, position 13)] yielded an IC50 [7] of 4470 nM, an IC50 [8] of 18500 nM and an IC50 [9] of 2520 nM. It also gave an IC50 [10] of 5860 nM.

QEAASSSSTL [QEAASSSSTL (position 36; protein printed as MAGE2 in the table of MAGE3-derived peptides)] showed an IC50 [11] of 144 nM.

SVFSTTINR [MAGE2.69.V2R9 (SVFSTTINR)] gave an IC50 [12] of 6.3 nM.

In the case of LPTTMNYPI [MAGE3.7LI9 LPTTMNYPI], the IC50 [13] is reported as 343 nM.

With PTDSPLNTSY [CEA.240.D3 PTDSPLNTSY] the IC50 [14] was 266 nM.
